Results from ChEMBL document CHEMBL6114970, “Development of carbazole-based molecules for inhibition of mutant hSOD1 protein aggregation in Amyotrophic Lateral Sclerosis” (Bioorg Med Chem, 2025).

Species on record: Homo sapiens
Test: Inhibition of TCEP-treated human SOD1 G93A mutant aggregation at 50 uM measured after 24 hrs by thioflavin-T fluorescence assay relative to control

COc1cc(/C=C/C(=O)CC(=O)/C=C/c2ccc(O)c(OC)c2)ccc1O [CURCUMIN]
inhibition: 73.5%
